According to patent publication US7250488 (Kyowa Kirin, dated 2007):

Target: T1, mouse β-catenin (mouse, UniProt Q02248 2-781)
T1 construct: mature; also called ^35S-labeled β-catenin
T1 sequence (looked up): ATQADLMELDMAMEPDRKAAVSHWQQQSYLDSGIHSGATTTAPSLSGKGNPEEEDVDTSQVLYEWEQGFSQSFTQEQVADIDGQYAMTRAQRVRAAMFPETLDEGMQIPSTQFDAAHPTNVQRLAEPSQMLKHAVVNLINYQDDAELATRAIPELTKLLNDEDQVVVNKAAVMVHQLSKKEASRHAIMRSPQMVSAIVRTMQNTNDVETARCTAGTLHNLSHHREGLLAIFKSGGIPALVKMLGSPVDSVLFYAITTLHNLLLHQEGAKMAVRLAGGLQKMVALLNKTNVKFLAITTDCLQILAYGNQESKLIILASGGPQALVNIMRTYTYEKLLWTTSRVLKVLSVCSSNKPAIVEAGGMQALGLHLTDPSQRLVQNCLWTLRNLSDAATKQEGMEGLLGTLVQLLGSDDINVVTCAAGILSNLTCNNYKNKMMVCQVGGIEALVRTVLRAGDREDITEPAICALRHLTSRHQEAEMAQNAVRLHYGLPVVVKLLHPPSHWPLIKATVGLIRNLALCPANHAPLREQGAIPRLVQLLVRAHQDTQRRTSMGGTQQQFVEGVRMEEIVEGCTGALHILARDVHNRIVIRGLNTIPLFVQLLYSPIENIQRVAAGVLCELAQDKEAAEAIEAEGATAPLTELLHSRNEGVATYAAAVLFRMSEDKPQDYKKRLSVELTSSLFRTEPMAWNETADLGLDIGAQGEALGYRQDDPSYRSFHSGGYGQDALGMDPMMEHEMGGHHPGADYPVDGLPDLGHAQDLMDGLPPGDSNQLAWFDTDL
Assay: pull-down on glutathione-Sepharose 4B of ^35S-labeled β-catenin, autoradiography
Protocol: Analysis of Binding Between ICAT and β-catenin (1) Detection of the Direct Binding In Vitro The direct binding of ICAT to β-catenin was verified as follows. ^35S-labeled β-catenin was translated and synthesized from mouse β-catenin mRNA in vitro by using ^35S-labeled methionine TNT-reticulocyte lysate system (Promega). The GST/ICAT-expressing E. coli as well as control GST-expressing E. coli prepared in Example 3 were cultured to obtain the respective bacterial lysates. Glutathione-Sepharose 4B (Amersham-Pharmacia Biotech) was added to these bacterial lysates, and […] or GST was adsorbed on it to isolate it. The GST/ICAT- or GST-adsorbed glutathione-Sepharose 4B was reacted to the above-mentioned ^35S-labeled β-catenin in buffer A containing 0.1% Triton X-100 at 4° C. for 2 hours. After the glutathione-Sepharose 4B was washed well with buffer A and then SDS-PAGE sample buffer was added thereto to elute the bound protein to the sample buffer. The eluate was used as a sample in SDS-PAGE in which the gel concentration was 15% and then the gel was visualized by autoradiography. […] Accordingly, it has been verified that GST/ICAT directly binds to β-catenin in vitro and that the site responsible for the binding to β-catenin is located within the ICAT moiety of GST/ICAT.

binding result: no binding
B1: GST (glutathione S-transferase) alone (other, UniProt P08515 1-218, looked up)
chain: MSPILGYWKIKGLVQPTRLLLEYLEEKYEEHLYERDEGDKWRNKKFELGLEFPNLPYYIDGDVKLTQSMAIIRYIADKHNMLGGCPKERAEISMLEGAVLDIRYGVSRIAYSKDFETLKVDFLSKLPEMLKMFEDRLCHKTYLNGDHVTHPDFMLYDALDVVLYMDPMCLDAFPKLVCFKKRIEAIPQIDKYLKSSKYIAWPLQGWQATFGGGDHPPK
notes: Control protein from E. coli transformed with pGEX5X-1; also called control GST
